Reference: ChEMBL document CHEMBL1146689, “The design and synthesis of a novel quinolizidine template for potent opioid and opioid receptor-like (ORL1, NOP) receptor ligands” (2004)

Sequences of proteins named here, by UniProt entry; tags and fusion partners are left off.
UniProt P41143, whole entry: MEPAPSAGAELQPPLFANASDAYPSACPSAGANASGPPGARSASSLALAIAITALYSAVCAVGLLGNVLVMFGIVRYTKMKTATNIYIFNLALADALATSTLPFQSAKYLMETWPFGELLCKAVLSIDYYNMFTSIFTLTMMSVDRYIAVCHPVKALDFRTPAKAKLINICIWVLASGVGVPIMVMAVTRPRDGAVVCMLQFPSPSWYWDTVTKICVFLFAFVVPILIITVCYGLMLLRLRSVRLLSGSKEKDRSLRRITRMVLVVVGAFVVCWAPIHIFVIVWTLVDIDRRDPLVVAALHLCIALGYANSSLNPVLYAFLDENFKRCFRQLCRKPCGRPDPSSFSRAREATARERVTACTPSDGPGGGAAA
UniProt P35372, whole entry: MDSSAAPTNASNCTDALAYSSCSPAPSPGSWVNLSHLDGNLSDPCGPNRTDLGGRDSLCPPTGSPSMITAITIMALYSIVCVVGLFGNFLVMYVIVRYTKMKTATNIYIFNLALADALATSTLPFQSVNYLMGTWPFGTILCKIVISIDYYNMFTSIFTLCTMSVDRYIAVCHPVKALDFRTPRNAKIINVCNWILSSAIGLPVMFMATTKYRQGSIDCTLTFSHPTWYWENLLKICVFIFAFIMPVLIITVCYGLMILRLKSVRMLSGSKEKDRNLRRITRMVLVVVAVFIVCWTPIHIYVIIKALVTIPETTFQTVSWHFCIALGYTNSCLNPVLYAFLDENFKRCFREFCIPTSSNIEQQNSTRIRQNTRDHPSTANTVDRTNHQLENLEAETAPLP
UniProt P41146, whole entry: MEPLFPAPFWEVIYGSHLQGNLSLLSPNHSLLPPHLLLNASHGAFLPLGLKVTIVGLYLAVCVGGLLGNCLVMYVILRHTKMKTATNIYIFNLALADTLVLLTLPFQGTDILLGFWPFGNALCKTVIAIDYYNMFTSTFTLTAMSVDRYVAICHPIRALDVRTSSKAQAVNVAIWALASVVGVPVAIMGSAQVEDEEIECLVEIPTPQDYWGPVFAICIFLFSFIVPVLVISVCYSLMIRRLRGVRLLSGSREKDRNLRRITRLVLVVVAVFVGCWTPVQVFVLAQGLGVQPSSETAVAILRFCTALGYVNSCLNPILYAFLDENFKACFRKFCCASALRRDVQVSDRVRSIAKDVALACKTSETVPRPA
UniProt P41145, whole entry: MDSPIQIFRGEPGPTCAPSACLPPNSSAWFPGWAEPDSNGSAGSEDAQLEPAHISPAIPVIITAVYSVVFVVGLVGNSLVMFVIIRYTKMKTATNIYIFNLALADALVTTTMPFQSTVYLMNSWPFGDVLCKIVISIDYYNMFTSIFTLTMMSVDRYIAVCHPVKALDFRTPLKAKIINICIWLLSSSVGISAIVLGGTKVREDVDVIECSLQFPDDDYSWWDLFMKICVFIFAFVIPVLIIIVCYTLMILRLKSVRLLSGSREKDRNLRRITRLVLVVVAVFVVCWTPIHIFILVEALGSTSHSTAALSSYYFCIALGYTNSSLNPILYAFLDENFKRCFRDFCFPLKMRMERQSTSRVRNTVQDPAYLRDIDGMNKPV

How the values were obtained:
[1] = molecular target: Delta-type opioid receptor (Homo sapiens, UniProt P41143); assay: Binding affinity for human opioid receptor delta 1 using [3H]- CL-DPDPE as radioligand transfected into CHO cells
Mu-type opioid receptor = Mu-type opioid receptor (Homo sapiens, UniProt P35372); assay: Binding affinity for human opioid receptor mu 1 using [3H]- DAMGO as radioligand transfected into CHO cells
Nociceptin receptor = Nociceptin receptor (Homo sapiens, UniProt P41146); assay: Binding affinity for human nociceptin (NOP) receptor using [3H]N/OFQ as radioligand transfected into CHO cells
[2] = molecular target: Kappa-type opioid receptor (Homo sapiens, UniProt P41145); assay: Binding affinity for human opioid receptor kappa 1 using [3H]- U-69,593 as radioligand transfected into CHO cells

Structure (SMILES)	Ki [1]	Ki (Mu-type opioid receptor)	Ki (Nociceptin receptor)	Ki [2]
CCn1c(=O)n([C@H]2CCN3[C@H](CCC[C@H]3c3ccccc3)C2)c2ccccc21	1.84 µM	0.0176 µM	0.535 µM	0.987 µM
CCn1c(=O)n([C@@H]2CCN3[C@H](CCC[C@H]3c3ccccc3)C2)c2ccccc21	1.49 µM	0.00254 µM	0.0196 µM	0.0227 µM
O=c1[nH]c2ccccc2n1[C@@H]1CCN2[C@H](CCC[C@H]2c2ccccc2)C1	1.72 µM	0.00524 µM	0.0057 µM	0.0011 µM
O=c1[nH]c2ccccc2n1[C@H]1CCN2[C@H](CCC[C@H]2c2ccccc2)C1	> 10 µM	0.0477 µM	0.786 µM	0.271 µM
